Experimental findings from US20140107051A1, “ISOFLAVONES FOR TREATING MUCOPOLYSACCHARIDOSES” (INSTYTUT FARMACEUTYCZNY, priority 2005, published 2014) are described below.

The series is described as follows: in vitro.

`O=c1c(-c2ccc(O)cc2)coc2cc(O)cc(O)c12` [Genistein, 4′,5,7-trihydroxy-3-phenylchromen-4-on, reference compound] yielded a CC50 at 24 h of over 100 µM.
